Assay results: PubChem BioAssay (Tox21)
Values joined by “and” are separate entries in the source; they are usually repeats but may differ in a detail not shown here. Equal values may be shown once. The list shows a part of the results, in another mix than the full data. Results filed as inconclusive are left out. Active and inactive are the calls of the source. Unless noted, calls come from the whole dose curve; as a rule, active = well fitted curve in the direction sought with a large enough effect in the repeat runs; inconclusive = weak or mixed curves; inactive = no such curve, though single readings can be large; an effect the other way counts as inactive or inconclusive.

Amino acid sequences for entries named in this document (tags omitted). A change or cut given only in a name is not applied to a line headed by its entry.
UniProt P04150: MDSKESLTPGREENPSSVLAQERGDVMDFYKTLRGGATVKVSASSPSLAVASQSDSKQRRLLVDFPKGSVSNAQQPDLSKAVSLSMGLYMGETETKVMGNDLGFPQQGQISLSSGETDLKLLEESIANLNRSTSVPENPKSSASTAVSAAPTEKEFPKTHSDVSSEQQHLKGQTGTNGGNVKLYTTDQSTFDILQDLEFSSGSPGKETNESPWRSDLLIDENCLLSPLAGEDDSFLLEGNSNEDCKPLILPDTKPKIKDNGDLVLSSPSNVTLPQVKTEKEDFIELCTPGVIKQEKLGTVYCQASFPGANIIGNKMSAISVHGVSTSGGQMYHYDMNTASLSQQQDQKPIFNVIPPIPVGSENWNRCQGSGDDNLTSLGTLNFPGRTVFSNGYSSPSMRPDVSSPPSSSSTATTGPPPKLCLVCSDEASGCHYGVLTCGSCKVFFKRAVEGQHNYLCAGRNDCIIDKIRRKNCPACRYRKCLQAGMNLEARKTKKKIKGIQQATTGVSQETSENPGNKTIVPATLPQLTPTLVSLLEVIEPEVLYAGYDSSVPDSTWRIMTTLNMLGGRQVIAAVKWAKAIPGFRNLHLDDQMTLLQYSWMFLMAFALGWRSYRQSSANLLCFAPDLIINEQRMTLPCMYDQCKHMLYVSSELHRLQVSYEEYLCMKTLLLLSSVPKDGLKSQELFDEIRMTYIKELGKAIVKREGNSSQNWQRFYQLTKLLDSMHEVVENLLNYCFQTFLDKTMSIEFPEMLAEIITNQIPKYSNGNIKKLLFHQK
UniProt P03372, whole entry, looked up: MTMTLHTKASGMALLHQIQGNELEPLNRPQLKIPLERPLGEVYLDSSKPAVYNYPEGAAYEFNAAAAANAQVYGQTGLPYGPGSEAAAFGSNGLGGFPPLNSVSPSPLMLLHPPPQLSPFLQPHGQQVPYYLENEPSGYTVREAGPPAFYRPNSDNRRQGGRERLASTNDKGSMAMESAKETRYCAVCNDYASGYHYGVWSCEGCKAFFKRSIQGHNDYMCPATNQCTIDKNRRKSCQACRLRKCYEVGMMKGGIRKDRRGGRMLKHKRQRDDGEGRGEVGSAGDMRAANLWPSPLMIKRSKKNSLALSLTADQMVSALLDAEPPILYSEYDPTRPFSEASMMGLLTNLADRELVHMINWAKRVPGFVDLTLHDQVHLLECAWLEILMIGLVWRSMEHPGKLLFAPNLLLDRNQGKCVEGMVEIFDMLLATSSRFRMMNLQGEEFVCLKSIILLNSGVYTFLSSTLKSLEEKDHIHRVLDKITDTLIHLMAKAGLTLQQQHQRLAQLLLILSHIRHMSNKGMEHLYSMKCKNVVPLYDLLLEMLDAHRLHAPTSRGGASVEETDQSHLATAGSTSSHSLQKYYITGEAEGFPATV
UniProt P10275: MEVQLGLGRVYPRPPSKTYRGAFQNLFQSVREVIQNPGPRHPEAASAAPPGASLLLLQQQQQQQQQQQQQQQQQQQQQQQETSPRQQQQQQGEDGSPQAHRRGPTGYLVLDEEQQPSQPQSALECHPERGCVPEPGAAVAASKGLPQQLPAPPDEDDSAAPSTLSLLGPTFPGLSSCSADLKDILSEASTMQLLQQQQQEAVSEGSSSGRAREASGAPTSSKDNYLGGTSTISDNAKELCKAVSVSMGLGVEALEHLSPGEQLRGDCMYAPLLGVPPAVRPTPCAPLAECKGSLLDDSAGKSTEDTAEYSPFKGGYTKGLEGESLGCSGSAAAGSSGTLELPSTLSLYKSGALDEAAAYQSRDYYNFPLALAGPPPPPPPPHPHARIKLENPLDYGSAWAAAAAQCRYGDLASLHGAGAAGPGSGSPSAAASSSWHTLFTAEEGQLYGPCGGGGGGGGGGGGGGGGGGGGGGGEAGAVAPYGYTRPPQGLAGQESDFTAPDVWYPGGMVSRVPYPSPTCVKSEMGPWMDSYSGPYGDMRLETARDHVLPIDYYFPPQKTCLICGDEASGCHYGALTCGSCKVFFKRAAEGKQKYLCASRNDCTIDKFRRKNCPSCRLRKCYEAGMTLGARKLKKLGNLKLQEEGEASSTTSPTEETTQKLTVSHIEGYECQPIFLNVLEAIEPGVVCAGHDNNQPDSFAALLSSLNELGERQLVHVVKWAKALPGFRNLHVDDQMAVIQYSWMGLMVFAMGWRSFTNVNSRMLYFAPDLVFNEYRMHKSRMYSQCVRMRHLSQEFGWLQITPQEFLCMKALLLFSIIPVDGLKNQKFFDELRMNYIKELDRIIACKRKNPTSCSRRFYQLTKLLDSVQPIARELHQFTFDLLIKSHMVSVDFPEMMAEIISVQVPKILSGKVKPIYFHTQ

Experiments:
[1] = qHTS assay to test for compound auto fluorescence at 590 nm (red) in HEK293 cell free culture (AID 720683); conditions: cell-free medium autofluorescence, Ex540/Em590 red
Summary of the method: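 Cell-free wells of DMEM with 10% FBS received compound, and intrinsic fluorescence was read at excitation/emission 540/590 nm. Values expressed as equivalence to Rose Bengal sodium.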

[2] = qHTS assay to test for compound auto fluorescence at 590 nm (red) in HepG2 cell free culture (AID 720684); conditions: cell-free medium autofluorescence, red 540/590 nm
[3] = qHTS assay to test for compound auto fluorescence at 460 nm (blue) in HepG2 cell free culture (AID 720685); conditions: Cell-free culture medium, blue autofluorescence 405/460 nm
Summary of the method: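 Compound (23 nL) or DMSO pinned into cell-free MEM with 10% FBS; blue fluorescence read at 405/460 nm excitation/emission, expressed as auto-fluorescence equivalency to triamterene.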

[4] = qHTS assay to test for compound auto fluorescence at 535 nm (green) in HepG2 cell free culture (AID 720686); conditions: Cell-free medium, green autofluorescence 485/535 nm
[5] = qHTS assay to test for compound auto fluorescence at 460 nm (blue) in HepG2 cells (AID 720687); conditions: autofluorescence 405/460 nm, 1 h
Summary of the method: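 HepG2 cells in MEM with 10% FBS, attached overnight at 37 C, were exposed to compound or DMSO for 1 hr at 37 C, 5% CO2. Blue fluorescence was read at 405/460 nm, with triamterene as reference fluorophore.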

[6] = target: Glucocorticoid receptor (Homo sapiens) (UniProt P04150); test: qHTS assay to identify small molecule agonists of the glucocorticoid receptor (GR) signaling pathway (AID 720691; active = well fitted activation curve with a large enough effect in the signal ratio in the repeat runs, not every such curve was filed as active; the % refers to the signal ratio); conditions: GR-bla HeLa, beta-lactamase reporter ratio, 18 h; at 62.4 µM (top of the series) unless noted
[7] = target: Glucocorticoid receptor (Homo sapiens) (UniProt P04150); test: qHTS assay to identify small molecule antagonists of the glucocorticoid receptor (GR) signaling pathway (AID 720692; active = well fitted inhibition curve with a large enough effect in the signal ratio in the repeat runs, not every such curve was filed as active; the % refers to the signal ratio); conditions: GR-bla HeLa, beta-lactamase FRET ratio, dexamethasone-stimulated, 18 h; at 58.5 µM (top of the series) unless noted
[8] = qHTS assay for identifying genotoxic compounds that show differential cytotoxicity against isogenic chicken DT40 cell lines with known DNA damage response pathways - Rad54/Ku70 mutant cell line (AID 743015); note: nearly all actives have a fitted effect of over 60% in size
[9] = qHTS assay to identify small molecule antagonists of the thyroid receptor (TR) signaling pathway (AID 743065); note: nearly all actives have a fitted effect of over 55% in size; note: potency is the fitted concentration of half-maximal effect
Summary of the method: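 GH3.TRE-Luc rat pituitary cells (two TREs driving luciferase) were dosed with compound, then stimulated with 1 nM T3 (final) for 23.5 h at 37 C. ONE-Glo luminescence was the read-out, with CellTiter-Fluor fluorescence as the cytotoxicity counter-screen.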

[10] = tested on: thyroid hormone receptor (rat, GH3 cells); test: qHTS assay to identify small molecule agonists of the thyroid receptor (TR) signaling pathway (AID 743066; calls by dose curve); conditions: GH3.TRE-Luc cells, TR agonist luciferase, 24 h; at 83.9 µM (top of the series) unless noted
[11] = target: Estrogen receptor (Homo sapiens) (UniProt P03372); test: qHTS assay to identify small molecule antagonists of the estrogen receptor alpha (ER-alpha) signaling pathway (AID 743069; active = well fitted curve in the direction sought with a large enough effect in the signal ratio in the repeat runs, not every such curve was filed as active; the % refers to the signal ratio)
Summary of the method: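 Reporter cells (ER-alpha-bla, HEK293 background) are conditioned overnight in stripped-serum medium (2% charcoal-stripped FBS). Compound and 17beta-estradiol exposure runs 18 hr at 37C, 5% CO2.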

[12] = qHTS assay to identify small molecule antagonists of the estrogen receptor alpha (ER-alpha) signaling pathway - cell viability counter screen (AID 743074; calls by dose curve;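 note: HEK293 cells carrying ER-alpha-UAS-bla reporter stimulated with 17beta-estradiol; nearly all actives have a fitted effect of over 45% in size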)
[13] = target: Estrogen receptor (Homo sapiens) (UniProt P03372); test: qHTS assay to identify small molecule agonists of the estrogen receptor alpha (ER-alpha) signaling pathway (AID 743075; calls by dose curve;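 note: HEK293 GripTite cells with ER-alpha and UAS-driven beta-lactamase reporter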)
[14] = target: Estrogen receptor (Homo sapiens) (UniProt P03372); test: qHTS assay to identify small molecule agonists of the estrogen receptor alpha (ER-alpha) signaling pathway using the BG1 cell line (AID 743079); note: nearly all actives have a fitted effect of over 20% in size
[15] = qHTS assay to identify small molecule antagonists of the estrogen receptor alpha (ER-alpha) signaling pathway using the BG1 cell line (AID 743080; calls by dose curve;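 note: BG1 cells stimulated with 17beta-estradiol alongside compound; nearly all actives have a fitted effect of over 25% in size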); conditions: BG1Luc4E2 ERE-luciferase antagonist mode, luminescence; at 70.3 µM (top of the series) unless noted
Summary of the method: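 Endogenous full-length ER-alpha in BG1-Luc-4E2 cells drives a stably integrated 4×ERE luciferase gene; compounds were tested against 17beta-estradiol over 21.5 h, with luminescence and multiplexed viability fluorescence recorded.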

[16] = qHTS assay to identify small molecule antagonists of the estrogen receptor alpha (ER-alpha) signaling pathway using the BG1 cell line - cell viability counter screen (AID 743081);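 note: compound given together with 17beta-estradiol as the ER stimulus; nearly all actives have a fitted effect of over 45% in size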
[17] = target: Androgen receptor (Homo sapiens) (UniProt P10275); test: qHTS assay to identify small molecule antagonists of the androgen receptor (AR) signaling pathway (AID 743035; active = well fitted inhibition curve with a large enough effect in the signal ratio in the repeat runs, not every such curve was filed as active; the % refers to the signal ratio)
[18] = target: Androgen receptor (Homo sapiens) (UniProt P10275); test: qHTS assay to identify small molecule agonists of the androgen receptor (AR) signaling pathway (AID 743036; active = well fitted activation curve with a large enough effect in the signal ratio in the repeat runs, with a control signal flat, not every such curve was filed as active; the % refers to the signal ratio); conditions: HEK293 AR-UAS-bla GripTite, beta-lactamase FRET ratio, 16 h; at 62.4 µM (top of the series)
[19] = target: Androgen receptor (Homo sapiens) (UniProt P10275); test: qHTS assay to identify small molecule agonists of the androgen receptor (AR) signaling pathway using the MDA cell line (AID 743040; note: nearly all actives have a fitted effect of over 20% in size); conditions: MDA-kb2 AR-luc cells, MMTV luciferase, 16 h; at 70.3 µM (top of the series); stronger effect = higher value
[20] = target: Androgen receptor (Homo sapiens) (UniProt P10275); test: qHTS assay to identify small molecule antagonists of the androgen receptor (AR) signaling pathway using the MDA cell line (AID 743042; note: nearly all actives have a fitted effect of over 55% in size)
[21] = at 91.3 µM (top of the series) unless noted
% is set by controls: 0 for no effect and ±100 for the full control effect.

CCOC(=O)Cl
inactive: fluorescence, % of fluorescent control [1, 21] -0.101% | fluorescence, % of Rose Bengal [2, 21] -0.007% | fluorescence, % of fluorescent control [3, 21] -0.0025% | fluorescence, % of fluorescein control [4, 21] -0.111% | fluorescence, % of fluorescent control [5, 21] -0.0106% | activation [6] -1.24% | activity change, negative = inhibition [7] -4.2% | Potency [8] | Potency [9] | activation [10] -0.207% | Potency [11] | Potency [12] | Potency [13] | Potency [14] | activity change, negative = inhibition [15] -7.72% | Potency [16]

O=P(Cl)(Cl)c1ccccc1
inactive: fluorescence, % of fluorescent control [1, 21] -0.0722% | fluorescence, % of Rose Bengal [2, 21] -0.0973% | fluorescence, % of fluorescent control [3, 21] 0.0454% | fluorescence, % of fluorescein control [4, 21] 0.0247% | fluorescence, % of fluorescent control [5, 21] 0.0046% | activation [6] 2.08% | Potency [8] | Potency [9] | activation [10] 0.504% | Potency [11] | Potency [12] | Potency [13] | Potency [14] | activity change, negative = inhibition [15] -4.74% | Potency [16]

CN(C(=O)Cc1ccccc1)[C@H]1CC[C@@]2(CCCO2)C[C@@H]1N1CCCC1
inactive: fluorescence, % of fluorescent control [1, 21] -0.0315% [at 46 µM] | fluorescence, % of Rose Bengal [2, 21] -0.0136% [at 46 µM] | fluorescence, % of fluorescent control [3, 21] 0.579% [at 46 µM] | fluorescence, % of fluorescein control [4, 21] 0.491% [at 46 µM] | activation [6] -3.5% | activity change, negative = inhibition [7] -13.1% | Potency [17] | activation [18] -14.1% | activity change [19] -1.01% | Potency [20] | Potency [9] | activation [10] -0.914% | Potency [11] | Potency [13] | Potency [14] | activity change, negative = inhibition [15] -10.1%

CCCCC(CC)CO[P+](=O)OCC(CC)CCCC (stereo unspecified)
inactive: fluorescence, % of fluorescent control [1, 21] -0.0035% | fluorescence, % of Rose Bengal [2, 21] -0.131% | fluorescence, % of fluorescent control [3, 21] 0.311% | fluorescence, % of fluorescein control [4, 21] -0.0248% | fluorescence, % of fluorescent control [5, 21] -0.0196% | activation [6] -0.0822% | activity change, negative = inhibition [7] -3.2% | Potency [8] | Potency [9] | activation [10] -0.306% | Potency [11] | Potency [12] | Potency [13] | Potency [14] | activity change, negative = inhibition [15] 6.73% | Potency [16]

NC(=O)Nc1ccc([As](=O)(O)O)cc1
inactive: fluorescence, % of fluorescent control ([1]; at 46 µM (top of the series)) -0.18% | fluorescence, % of fluorescent control ([1]; at 91.3 µM (top of the series)) -0.128% | fluorescence, % of Rose Bengal ([2]; at 46 µM (top of the series)) 0.438% | fluorescence, % of Rose Bengal ([2]; at 91.3 µM (top of the series)) 0.0175% | fluorescence, % of fluorescent control ([3]; at 46 µM (top of the series)) 0.0208% | fluorescence, % of fluorescent control ([3]; at 91.3 µM (top of the series)) 0.0803% | fluorescence, % of fluorescein control ([4]; at 46 µM (top of the series)) -0.19% | fluorescence, % of fluorescein control ([4]; at 91.3 µM (top of the series)) 0.12% | fluorescence, % of fluorescent control ([5]; at 46 µM (top of the series)) -0.0557% | fluorescence, % of fluorescent control ([5]; at 91.3 µM (top of the series)) -0.0068% | Potency [8] | Potency [17] | activation [18] 4.57% and 2% | activity change [19] -0.247% and 1.99% | Potency [20] | Potency [9] | activation [10] 0.299% and 0.492% | Potency [12]

CN(C(=O)Cc1ccc(Cl)c(Cl)c1)[C@H]1CC[C@@]2(CCCO2)C[C@@H]1N1CCCC1
inactive: fluorescence, % of fluorescent control [1, 21] -0.145% [at 46 µM] | fluorescence, % of Rose Bengal [2, 21] -0.276% [at 46 µM] | fluorescence, % of fluorescent control [3, 21] -0.0205% [at 46 µM] | fluorescence, % of fluorescein control [4, 21] -0.0526% [at 46 µM] | fluorescence, % of fluorescent control [5, 21] -0.0065% [at 46 µM] | activation [6] -12.8% | activity change [19] -11.5% | Potency [11] | Potency [13]
active: Potency [9] 21.1 µM
